Measured values reported in PubChem BioAssay AID1974 (The Scripps Research Institute Molecular Screening Center, 2009).
This is a selection; strong and weak results do not stand in their true shares. Calls of active or inactive are those of the source.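 How the source made its calls: active means inhibition above the campaign mean inhibition plus 3 SD (cut at about 35% in these data); inactive means the rest.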

By UniProt entry, the sequences of proteins in these tests, tags left out.
UniProt P78417, whole entry: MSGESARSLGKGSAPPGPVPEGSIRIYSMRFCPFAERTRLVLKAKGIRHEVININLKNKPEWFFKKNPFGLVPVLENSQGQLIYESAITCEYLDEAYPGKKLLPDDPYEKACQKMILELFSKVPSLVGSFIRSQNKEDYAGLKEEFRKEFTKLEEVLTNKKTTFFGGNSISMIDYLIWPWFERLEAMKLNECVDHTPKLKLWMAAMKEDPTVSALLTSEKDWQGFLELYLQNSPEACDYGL

Biological target: Glutathione S-transferase omega-1 (Homo sapiens) (UniProt P78417)
Test: human GSTO1 enzyme inhibition – biochemical, fluorescence polarization, counter-screen for RBBP9 inhibitor project, primary screen (AID 1974);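 further: 0% = GSTO1-1 with DMSO and 100% = wells lacking GSTO1-1 enzyme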
Conditions: recombinant GSTO1, activity-based probe fluorescence polarization; at 5.96 µM; active compounds read high

Row | Structure (SMILES) | inhibition
1 | COc1ccc(OP(C)(=O)Nc2ccccn2)cc1 (stereo unspecified) | inactive: 11.7%
